Results published in US9764004B2 (Eli Lilly and Company, priority 2015, dated 2017).

By UniProt entry, the sequences of proteins in these tests, tags left out. Residues count along the entry.
UniProt P30082, 27-485: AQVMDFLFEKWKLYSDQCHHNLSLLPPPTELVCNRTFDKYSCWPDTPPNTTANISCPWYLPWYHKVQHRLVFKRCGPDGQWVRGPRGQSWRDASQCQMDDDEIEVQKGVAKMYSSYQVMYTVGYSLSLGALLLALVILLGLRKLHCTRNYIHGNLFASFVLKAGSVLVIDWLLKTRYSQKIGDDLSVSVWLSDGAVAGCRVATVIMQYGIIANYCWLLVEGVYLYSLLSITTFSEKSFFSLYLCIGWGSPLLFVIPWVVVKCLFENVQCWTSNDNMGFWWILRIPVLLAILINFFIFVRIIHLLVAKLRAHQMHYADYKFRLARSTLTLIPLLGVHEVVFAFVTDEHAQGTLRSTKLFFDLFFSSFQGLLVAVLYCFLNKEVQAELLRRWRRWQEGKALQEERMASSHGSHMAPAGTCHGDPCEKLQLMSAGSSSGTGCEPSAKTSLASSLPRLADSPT
UniProt P47871, 26-477: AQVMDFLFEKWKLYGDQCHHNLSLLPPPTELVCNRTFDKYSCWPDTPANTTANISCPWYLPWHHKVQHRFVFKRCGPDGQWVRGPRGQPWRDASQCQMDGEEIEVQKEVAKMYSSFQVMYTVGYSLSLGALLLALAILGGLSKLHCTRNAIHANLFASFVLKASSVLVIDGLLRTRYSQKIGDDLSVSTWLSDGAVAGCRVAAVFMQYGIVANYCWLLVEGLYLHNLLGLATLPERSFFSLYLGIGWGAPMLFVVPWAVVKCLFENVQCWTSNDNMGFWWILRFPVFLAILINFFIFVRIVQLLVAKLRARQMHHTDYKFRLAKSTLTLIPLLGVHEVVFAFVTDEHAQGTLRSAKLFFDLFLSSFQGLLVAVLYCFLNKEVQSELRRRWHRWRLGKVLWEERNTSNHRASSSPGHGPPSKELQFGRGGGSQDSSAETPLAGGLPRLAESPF
UniProt Q61606, 27-485: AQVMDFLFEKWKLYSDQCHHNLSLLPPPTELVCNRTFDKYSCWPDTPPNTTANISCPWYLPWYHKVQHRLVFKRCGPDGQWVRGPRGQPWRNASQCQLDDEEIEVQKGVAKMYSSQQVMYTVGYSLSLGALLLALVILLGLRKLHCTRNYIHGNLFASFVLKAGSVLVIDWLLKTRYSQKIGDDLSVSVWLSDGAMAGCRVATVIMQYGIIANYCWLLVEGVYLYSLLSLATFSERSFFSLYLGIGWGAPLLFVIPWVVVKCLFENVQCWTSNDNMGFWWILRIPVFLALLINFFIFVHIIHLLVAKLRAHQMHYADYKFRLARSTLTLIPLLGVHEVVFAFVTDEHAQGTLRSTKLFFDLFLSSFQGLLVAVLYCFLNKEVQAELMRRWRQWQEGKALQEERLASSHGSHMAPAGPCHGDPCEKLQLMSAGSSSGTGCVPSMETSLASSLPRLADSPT
UniProt P43220, 24-463: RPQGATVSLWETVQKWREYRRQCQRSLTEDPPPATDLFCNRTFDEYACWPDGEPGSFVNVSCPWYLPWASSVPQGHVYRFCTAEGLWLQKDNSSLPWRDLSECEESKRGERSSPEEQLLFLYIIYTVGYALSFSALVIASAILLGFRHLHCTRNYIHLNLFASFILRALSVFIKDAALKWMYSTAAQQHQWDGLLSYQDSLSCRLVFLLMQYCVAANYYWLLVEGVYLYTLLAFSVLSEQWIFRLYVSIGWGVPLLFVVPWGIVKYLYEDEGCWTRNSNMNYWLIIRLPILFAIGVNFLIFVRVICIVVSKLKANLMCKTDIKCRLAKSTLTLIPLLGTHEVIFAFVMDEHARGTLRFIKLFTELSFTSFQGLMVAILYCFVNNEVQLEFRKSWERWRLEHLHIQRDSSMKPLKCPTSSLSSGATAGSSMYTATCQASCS

Legend:
[1] = Solubility and Stability, 10 mg/mL, one week at 4° C.; details: SEC-HPLC
[2] = biological target: T1, rat glucagon receptor (rGcg-R) (Rattus norvegicus, UniProt P30082); assay: Radioligand competition binding (SPA), rGcg-R membranes; details: mean ± SEM
T1 construct: expressed in transfected cells; host or cells: 293HEK, transient (48 h), pcDNA3.1-ZeoR; crude plasma membranes

[3] = biological target: T2, human glucagon receptor (hGcg-R) (Homo sapiens, UniProt P47871); assay: Radioligand competition binding (SPA), hGcg-R membranes; design: expressed in transfected cells; crude plasma membranes; details: mean ± SEM
hGIP-R = biological target: T3, hGIP-R (Homo sapiens, UniProt P48546); assay: hGIP-R functional cAMP assay; assay type: cell-based; details: cAMP; geometric mean ± SEM; read-out: hGIP-R EC50
T3 construct: expressed in transfected cells; host or cells: CHO-S (Chinese Hamster Ovary, suspension), pcDNA3.1-NeoR, Geneticin selection
T3 sequence (P48546 22-466): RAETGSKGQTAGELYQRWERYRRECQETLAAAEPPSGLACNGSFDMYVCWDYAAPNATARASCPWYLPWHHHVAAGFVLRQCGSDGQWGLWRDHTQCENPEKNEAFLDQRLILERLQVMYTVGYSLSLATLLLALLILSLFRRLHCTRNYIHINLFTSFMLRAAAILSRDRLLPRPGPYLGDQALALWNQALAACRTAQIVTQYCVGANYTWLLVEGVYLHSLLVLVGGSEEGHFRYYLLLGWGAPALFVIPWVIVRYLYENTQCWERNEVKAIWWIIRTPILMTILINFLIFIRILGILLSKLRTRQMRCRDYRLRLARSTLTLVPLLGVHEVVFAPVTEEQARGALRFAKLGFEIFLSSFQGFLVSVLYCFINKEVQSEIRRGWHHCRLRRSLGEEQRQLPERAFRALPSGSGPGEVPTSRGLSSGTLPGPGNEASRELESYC

[4] = biological target: T4, mouse glucagon receptor (mGcg-R) (Mus musculus, UniProt Q61606); assay: Radioligand competition binding (SPA), mGcg-R membranes; details: mean ± SEM
T4 construct: expressed in transfected cells; crude plasma membranes

[5] = biological target: T2, human glucagon receptor (hGcg-R); assay: hGcg-R functional cAMP assay; assay type: cell-based; design: expressed in transfected cells; host or cells: 293HEK, plasmid phD, hygromycin selection; details: cAMP; geometric mean ± SEM; read-out: hGcg-R EC50
[6] = biological target: human Glucagon-Like Peptide-1 receptor (hGLP-1R) (Homo sapiens, UniProt P43220); assay: hGLP-1-R functional cAMP assay; details: hGlp-1R EC50, cAMP; geometric mean ± SEM
Pharmacokinetics in Rats = assay type: in vivo; details: rat, plasma; male Sprague Dawley rats, single SC 100 nmol/kg
[7] = Pharmacokinetics in Cynomolgus Monkeys; details: cynomolgus monkey, in vivo
Method: Plasma concentrations of compounds are determined by LC/MS methods. Each method measured the intact peptide (peptide plus linked time extension). For each assay, the compound and an analog, used as an internal standard (IS), are extracted from 100% rat or monkey plasma (50 μl) using methanol and 0.1% formic acid. Two distinct layers are formed upon centrifugation with the compound and the IS located in the supernatant. A 275 μl aliquot of the supernatant is transferred to a Thermo Protein Precipitation Plate where a vacuum is applied for collection of the flow through into a 96-well plate.
Samples are dried with heated nitrogen gas to remove the supernatant. A volume of 150 μl of 30% acetonitrile and 5% formic acid is added to the wells to reconstitute the samples. Injected samples (20 μl) are loaded onto a Supelco Analytical Discovery BIO Wide Pore C5-3, 5 cm×0.1 mm, 3 μm column. The column effluent is directed into a Thermo Q-Exactive mass spectrometer for detection and quantitation.
Male Cynomolgus monkeys are administered a single intravenous (50 nmole/kg) or subcutaneous (50 nmole/kg) dose of a test compound in Tris Buffer (pH 8.0) at a volume of 0.25 ml/kg. Blood is collected from each animal at 0.5 (IV only), 6, 12, 24, 48, 72, 96, 120, 168, 192, 240, 336, 480, 576, and 672 hours post-dose. Plasma concentrations of compounds are determined by LC/MS methods generally as described above in the Sprague dawley rat studies.
Mean (n=2) pharmacokinetic parameters are provided below in table 4.

[8] = 10 mg/mL in C6N (10 mM Citrate, 100 mM NaCl, pH 6)
[9] = 10 mg/mL in C7N (10 mM Citrate, 100 mM NaCl, pH 7)
[10] = 10 mg/mL in H6.5N (10 mM Histidine, 100 mM NaCl, pH 6.5)
[11] = 10 mg/mL in H7.5N (10 mM Histidine, 100 mM NaCl, pH 7.5)
[12] = male Cynomolgus monkeys, SC 50 nmol/kg, mean n=2

SMILES	Δ % HMW Peak [1, 8] [%]	Δ % HMW Peak [1, 9] [%]	Δ % HMW Peak [1, 10] [%]	Δ % HMW Peak [1, 11] [%]	Ki [2] [nM]	Ki [3] [nM]	EC50 (hGIP-R) [nM]	Ki [4] [nM]	EC50 [5] [nM]	EC50 [6] [nM]	AUC(0-inf) (Pharmacokinetics in Rats) [µM·h]	CL/F (Pharmacokinetics in Rats) [mL/h/kg]	Cmax (Pharmacokinetics in Rats) [nM]	Tmax (Pharmacokinetics in Rats) [h]	half-life (Pharmacokinetics in Rats) [h]	also measured
CC(C)C[C@H](NC(=O)[C@H](Cc1c[nH]c2ccccc12)NC(=O)[C@H](CCC(=O)O)NC(=O)[C@@H](NC(=O)[C@H](Cc1ccccc1)NC(=O)[C@H](CCC(=O)O)NC(=O)[C@H](CCCCNC(=O)COCCOCCNC(=O)COCCOCCNC(=O)CC[C@H](NC(=O)CC[C@H](NC(=O)CCCCCCCCCCCCCCCCC(=O)O)C(=O)O)C(=O)O)NC(=O)[C@H](C)NC(=O)[C@H](CCCCN)NC(=O)[C@H](CCCCN)NC(=O)C(C)(C)NC(=O)[C@H](CC(=O)O)NC(=O)[C@H](CC(C)C)NC(=O)[C@H](Cc1ccc(O)cc1)NC(=O)[C@H](CCCCN)NC(=O)[C@H](CO)NC(=O)[C@H](Cc1ccc(O)cc1)NC(=O)[C@H](CC(=O)O)NC(=O)[C@H](CO)NC(=O)[C@@H](NC(=O)[C@H](Cc1ccccc1)NC(=O)[C@@H](NC(=O)CNC(=O)[C@H](CCC(N)=O)NC(=O)C(C)(C)NC(=O)[C@@H](N)Cc1ccc(O)cc1)[C@@H](C)O)[C@@H](C)O)C(C)C)C(=O)N[C@@H](CC(C)C)C(=O)N[C@@H](CCC(=O)O)C(=O)N[C@H](C(=O)NCC(=O)N1CCC[C@H]1C(=O)N[C@@H](CO)C(=O)N[C@@H](CO)C(=O)NCC(N)=O)[C@@H](C)O [Example 4]	0.64	0.26	0.35	0.44	5.86	0.738	> 500	0.774	0.00278 ± 0.0001	19 ± 8.2	5.95	17	257	6	16	Δ % Main Peak ([1]; 10 mg/mL in H7.5N): −0.79%
CC(C)C[C@H](NC(=O)[C@H](Cc1c[nH]c2ccccc12)NC(=O)[C@H](CCC(=O)O)NC(=O)[C@@H](NC(=O)[C@H](Cc1ccccc1)NC(=O)[C@H](CCC(=O)O)NC(=O)[C@H](CCCCNC(=O)COCCOCCNC(=O)COCCOCCNC(=O)CC[C@H](NC(=O)CC[C@H](NC(=O)CCCCCCCCCCCCCCCCCCC(=O)O)C(=O)O)C(=O)O)NC(=O)[C@H](C)NC(=O)[C@H](CCCCN)NC(=O)[C@H](CCCCN)NC(=O)C(C)(C)NC(=O)[C@H](CC(=O)O)NC(=O)[C@H](CC(C)C)NC(=O)[C@H](Cc1ccc(O)cc1)NC(=O)[C@H](CCCCN)NC(=O)[C@H](CO)NC(=O)[C@H](Cc1ccc(O)cc1)NC(=O)[C@H](CC(=O)O)NC(=O)[C@H](CO)NC(=O)[C@@H](NC(=O)[C@H](Cc1ccccc1)NC(=O)[C@@H](NC(=O)CNC(=O)[C@H](CCC(N)=O)NC(=O)C(C)(C)NC(=O)[C@@H](N)Cc1ccc(O)cc1)[C@@H](C)O)[C@@H](C)O)C(C)C)C(=O)N[C@@H](CC(C)C)C(=O)N[C@@H](CCC(=O)O)C(=O)N[C@H](C(=O)NCC(=O)N1CCC[C@H]1C(=O)N[C@@H](CO)C(=O)N[C@@H](CO)C(=O)NCC(=O)N[C@@H](C)C(=O)N1CCC[C@H]1C(=O)N1CCC[C@H]1C(=O)N1CCC[C@H]1C(=O)N[C@@H](CO)C(N)=O)[C@@H](C)O [Example 2]					5.59 ± 0.24	1.07 ± 0.16	> 500	0.991 ± 0.066	0.0112 ± 0.0025	> 100	21.3	4.7	346	24	22	AUC(0-inf) [7, 12]: 46.3 µM·h; Tmax [7, 12]: 18 h; half-life [7, 12]: 79 h; Cmax ([7]; male, sc, 50 nmol/kg, read-out: C0 or Cmax): 377 nM; CL/F ([7]; male, sc, 50 nmol/kg, read-out: CL or CL/F (converted)): 1.08 mL/h/kg
CC(C)C[C@H](NC(=O)[C@H](Cc1c[nH]c2ccccc12)NC(=O)[C@H](C)NC(=O)[C@@H](NC(=O)[C@H](Cc1ccccc1)NC(=O)[C@H](CCC(=O)O)NC(=O)[C@H](CCCCNC(=O)COCCOCCNC(=O)COCCOCCNC(=O)CC[C@H](NC(=O)CCCCCCCCCCCCCCCCC(=O)O)C(=O)O)NC(=O)[C@H](C)NC(=O)[C@H](CCCCN)NC(=O)[C@H](CCCCN)NC(=O)C(C)(C)NC(=O)[C@H](CC(=O)O)NC(=O)[C@H](CC(C)C)NC(=O)[C@H](Cc1ccc(O)cc1)NC(=O)[C@H](CCCCN)NC(=O)[C@H](CO)NC(=O)[C@H](Cc1ccc(O)cc1)NC(=O)[C@H](CC(=O)O)NC(=O)[C@H](CO)NC(=O)[C@@H](NC(=O)[C@H](Cc1ccccc1)NC(=O)[C@@H](NC(=O)CNC(=O)[C@H](CCC(N)=O)NC(=O)C(C)(C)NC(=O)[C@@H](N)Cc1ccc(O)cc1)[C@@H](C)O)[C@@H](C)O)C(C)C)C(=O)N[C@@H](CC(C)C)C(=O)N[C@@H](CCC(=O)O)C(=O)N[C@@H](CCC(=O)O)C(=O)O [Example 6]	−0.03	−0.26	0.11	0.14	0.98	0.316	> 500	0.123	0.00413 ± 0.00026	> 100						Δ % Main Peak ([1]; 10 mg/mL in C6N): −0.98%; Δ % Main Peak ([1]; 10 mg/mL in C7N): 0.36%
